Chains of the proteins cited; added tags and fusions are not shown. Lines headed by an entry give the natural chain unless they say otherwise; changes in a name come on top.
UniProt Q13255: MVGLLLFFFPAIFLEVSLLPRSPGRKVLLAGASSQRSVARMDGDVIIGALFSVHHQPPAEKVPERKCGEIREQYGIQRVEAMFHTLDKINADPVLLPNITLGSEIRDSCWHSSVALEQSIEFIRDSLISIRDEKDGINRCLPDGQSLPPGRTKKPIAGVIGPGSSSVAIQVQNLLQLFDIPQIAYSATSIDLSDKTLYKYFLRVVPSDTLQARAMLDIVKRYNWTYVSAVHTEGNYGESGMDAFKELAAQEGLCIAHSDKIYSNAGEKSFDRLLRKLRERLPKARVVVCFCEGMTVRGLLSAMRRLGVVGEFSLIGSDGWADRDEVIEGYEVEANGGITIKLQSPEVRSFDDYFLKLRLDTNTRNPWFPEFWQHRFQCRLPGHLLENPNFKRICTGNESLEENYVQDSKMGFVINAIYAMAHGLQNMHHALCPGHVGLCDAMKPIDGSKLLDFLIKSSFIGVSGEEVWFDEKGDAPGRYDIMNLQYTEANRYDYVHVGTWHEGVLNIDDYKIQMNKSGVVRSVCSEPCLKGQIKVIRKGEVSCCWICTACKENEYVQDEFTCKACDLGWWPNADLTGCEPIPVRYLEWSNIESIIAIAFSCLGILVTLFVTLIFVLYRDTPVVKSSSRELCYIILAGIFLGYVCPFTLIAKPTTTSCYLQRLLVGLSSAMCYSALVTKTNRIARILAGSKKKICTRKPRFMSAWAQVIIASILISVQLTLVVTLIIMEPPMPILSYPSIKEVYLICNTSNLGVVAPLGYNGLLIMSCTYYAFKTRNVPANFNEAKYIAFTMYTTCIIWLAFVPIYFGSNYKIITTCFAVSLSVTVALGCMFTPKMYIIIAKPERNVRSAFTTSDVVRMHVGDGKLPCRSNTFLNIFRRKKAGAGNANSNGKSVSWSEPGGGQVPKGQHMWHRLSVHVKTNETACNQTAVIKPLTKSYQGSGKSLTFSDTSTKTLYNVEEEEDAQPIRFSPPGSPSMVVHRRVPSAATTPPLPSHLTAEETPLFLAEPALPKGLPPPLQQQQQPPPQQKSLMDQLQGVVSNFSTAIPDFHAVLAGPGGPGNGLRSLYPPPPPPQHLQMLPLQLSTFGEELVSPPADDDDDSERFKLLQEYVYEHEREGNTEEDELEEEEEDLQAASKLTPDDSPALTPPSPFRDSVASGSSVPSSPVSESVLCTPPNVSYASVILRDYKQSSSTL

According to ChEMBL document CHEMBL1133464, “Ligands for glutamate receptors: design and therapeutic prospects” (J Med Chem, 2000):

Target: Metabotropic glutamate receptor 1 (Homo sapiens, UniProt Q13255)
Assay: Agonist potency against cloned human metabotropic glutamate receptor 1
Assay type: functional

N[C@@H](Cn1oc(=O)[nH]c1=O)C(=O)O [QUISQUALATE]
pKi: 5.96

pKi: −log10 of the molar value.
